Measurements published in ChEMBL document CHEMBL2177014, “Combining galantamine and memantine in multitargeted, new chemical entities potentially useful in Alzheimer's disease” (J Med Chem, 2012).

Chains of the proteins cited; added tags and fusions are not shown.
UniProt Q00960, whole entry: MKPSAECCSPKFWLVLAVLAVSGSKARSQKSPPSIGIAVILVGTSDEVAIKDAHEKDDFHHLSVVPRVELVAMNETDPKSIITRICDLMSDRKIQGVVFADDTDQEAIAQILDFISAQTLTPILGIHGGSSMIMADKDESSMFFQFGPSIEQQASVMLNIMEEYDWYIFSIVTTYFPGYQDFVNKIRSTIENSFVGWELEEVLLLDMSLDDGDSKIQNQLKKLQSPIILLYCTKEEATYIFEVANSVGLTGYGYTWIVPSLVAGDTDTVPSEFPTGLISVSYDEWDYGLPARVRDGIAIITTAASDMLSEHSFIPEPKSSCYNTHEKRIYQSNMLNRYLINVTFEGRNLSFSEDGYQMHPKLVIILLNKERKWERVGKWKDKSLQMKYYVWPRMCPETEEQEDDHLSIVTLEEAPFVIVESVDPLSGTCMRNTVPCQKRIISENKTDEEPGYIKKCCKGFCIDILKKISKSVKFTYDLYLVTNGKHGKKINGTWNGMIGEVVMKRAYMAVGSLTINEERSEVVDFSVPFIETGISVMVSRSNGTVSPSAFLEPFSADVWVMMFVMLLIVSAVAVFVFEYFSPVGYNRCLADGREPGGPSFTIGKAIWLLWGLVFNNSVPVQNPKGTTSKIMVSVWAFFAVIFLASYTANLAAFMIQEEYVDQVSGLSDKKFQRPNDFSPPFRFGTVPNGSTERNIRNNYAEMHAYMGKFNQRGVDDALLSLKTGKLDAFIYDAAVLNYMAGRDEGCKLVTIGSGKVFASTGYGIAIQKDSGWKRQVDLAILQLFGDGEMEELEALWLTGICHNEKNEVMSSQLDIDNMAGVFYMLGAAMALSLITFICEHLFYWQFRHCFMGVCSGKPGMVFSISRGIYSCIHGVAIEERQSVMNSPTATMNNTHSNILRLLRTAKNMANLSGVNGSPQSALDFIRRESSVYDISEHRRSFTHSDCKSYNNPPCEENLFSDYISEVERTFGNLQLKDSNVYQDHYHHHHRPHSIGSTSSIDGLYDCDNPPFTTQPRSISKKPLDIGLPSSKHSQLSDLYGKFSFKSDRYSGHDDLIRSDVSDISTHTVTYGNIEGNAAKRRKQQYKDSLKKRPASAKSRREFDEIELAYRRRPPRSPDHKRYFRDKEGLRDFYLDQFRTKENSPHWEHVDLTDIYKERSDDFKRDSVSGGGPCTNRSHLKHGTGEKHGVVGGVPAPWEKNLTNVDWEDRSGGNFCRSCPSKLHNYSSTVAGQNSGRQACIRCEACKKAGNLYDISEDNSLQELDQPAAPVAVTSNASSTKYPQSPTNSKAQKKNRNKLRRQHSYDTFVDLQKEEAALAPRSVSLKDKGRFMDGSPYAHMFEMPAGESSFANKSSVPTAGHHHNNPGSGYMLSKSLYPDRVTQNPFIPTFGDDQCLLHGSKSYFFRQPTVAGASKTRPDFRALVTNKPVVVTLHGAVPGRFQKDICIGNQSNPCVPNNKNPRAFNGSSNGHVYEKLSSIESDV

Target: Glutamate receptor ionotropic, NMDA 2B (Rattus norvegicus, UniProt Q00960)
Test: Displacement of [3H]Ifenprodil from NMDAR-2B in Sprague-Dawley rat frontal cortex homogenates after 2 hrs by liquid scintillation counting
Type: tissue-based

`CC12CC3CC(C)(C1)CC(N)(C3)C2` [MEMANTINE] showed a Ki greater than 100 µM.
